Experimental data published in PMC3031881, “Amyloid precursor protein selective gamma-secretase inhibitors for treatment of Alzheimer's disease” (Alzheimer's Research & Therapy, 2010).

System: Notch signaling in SNC cells (rat NotchΔE, CBF-Luciferase)
Assay: SNC dual cell assay, Notch signaling luciferase reporter
Settings: ratio of cellular Notch signaling and Aβ EC50

CC(C)C[C@H](NC(=O)[C@H](Cc1ccccc1)C[C@@H](O)[C@H](Cc1ccccc1)NC(=O)OC(C)(C)C)C(=O)N[C@@H](Cc1ccccc1)C(N)=O [L-685,458, tert-Butyl (2S,3R,5R)-6-((S)-1-((S)-1-amino-1-oxo-3-phenylpropan-2-ylamino)-4-methyl-1-oxopentan-2-ylamino)-5-benzyl-3-hydroxy-6-oxo-1-phenylhexan-2-ylcarbamate]
Cellular Selectivity (APP/Notch): 14
